From PMC9298352, “Design, Synthesis and Structural Analysis of Glucocerebrosidase Imaging Agents” (Chemistry (Weinheim an Der Bergstrasse, Germany), 2021) come the findings set out here.

The target of assay [1] is T1, human GBA2 (from lysates of GBA2 overexpressed cells) (Homo sapiens, UniProt Q9HCG7).
T1 construct: expressed in transfected cells; host or cells: HEK293T
T1 sequence (Q9HCG7 1-927): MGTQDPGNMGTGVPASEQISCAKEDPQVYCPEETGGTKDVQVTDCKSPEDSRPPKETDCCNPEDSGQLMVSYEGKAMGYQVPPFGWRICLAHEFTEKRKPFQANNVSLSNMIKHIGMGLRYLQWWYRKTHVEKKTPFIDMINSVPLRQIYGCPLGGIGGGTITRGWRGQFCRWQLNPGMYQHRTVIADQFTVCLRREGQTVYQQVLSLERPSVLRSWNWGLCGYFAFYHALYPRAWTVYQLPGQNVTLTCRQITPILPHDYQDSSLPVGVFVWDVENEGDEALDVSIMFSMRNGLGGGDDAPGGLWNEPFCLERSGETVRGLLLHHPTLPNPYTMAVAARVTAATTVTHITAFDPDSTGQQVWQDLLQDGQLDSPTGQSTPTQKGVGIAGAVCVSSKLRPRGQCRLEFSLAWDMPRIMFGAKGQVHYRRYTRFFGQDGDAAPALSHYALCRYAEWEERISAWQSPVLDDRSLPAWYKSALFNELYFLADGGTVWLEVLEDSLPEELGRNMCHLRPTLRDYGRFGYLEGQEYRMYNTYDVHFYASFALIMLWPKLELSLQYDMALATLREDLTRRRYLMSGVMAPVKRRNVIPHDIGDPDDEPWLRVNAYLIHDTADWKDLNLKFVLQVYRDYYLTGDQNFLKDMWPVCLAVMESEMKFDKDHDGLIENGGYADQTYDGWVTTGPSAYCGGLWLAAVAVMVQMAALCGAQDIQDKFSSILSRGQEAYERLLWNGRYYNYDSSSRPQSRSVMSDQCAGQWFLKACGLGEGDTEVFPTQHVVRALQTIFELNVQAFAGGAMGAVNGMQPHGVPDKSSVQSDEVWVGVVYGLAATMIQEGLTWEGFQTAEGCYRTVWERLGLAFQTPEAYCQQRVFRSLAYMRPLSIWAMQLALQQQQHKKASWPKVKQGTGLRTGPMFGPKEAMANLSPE
Kind of assay: In vitro apparent IC50, fluorogenic substrate assay on GBA2 in lysates of overexpressing cells. Type of assay: biochemical. Conditions: selectivity for GBA. How it is done: (§1) All assays were performed in duplicate sets, each with 3 technical replicates at each inhibitor concentration. DMSO concentration was kept at 0.5 %–1 % (v/v) in all assays during incubation with compounds. In vitro apparent IC50 values were calculated by fitting data with [inhibitor] vs. response‐various slope (four parameters) function using Graphpad Prism 7.0 software. Average values and standard deviations were calculated from the two sets.

Assay [2] concerns the target T2, recombinant human GAA (rhGAA, Myozyme) (Homo sapiens, UniProt P10253).
T2 construct: purchased Sanofi Genzyme (Cambridge, MA, USA)
Kind of assay: In vitro apparent IC50, fluorogenic substrate assay on rhGAA. Type of assay: biochemical. The following applies: selectivity for GBA. The method, then:
as §1

As for `CCCCCCCCN1[C@@H]2[C@H](Cn3cc(CNC(=O)CCCCC[N+]4=C(/C=C/C=C/C=C5/N(C)c6ccccc6C5(C)C)C(C)(C)c5ccccc54)nn3)[C@@H](O)[C@H](O)[C@@H](O)[C@@H]21` (some centres unmarked) [ABP 6], the “IC50 ratio GBA2/GBA” value in assay [1] is reported as > 10^3. Also, the “IC50 ratio GAA/GBA” value in assay [2] is listed as > 10^3.
